Laboratory results taken from patent US20080081051A1, “Method of manufacturing anti-tumor and anti-viral compositions” (priority 2006, published 2008).

Conditions: cynomolgus monkey, in vivo, iv

iron dextran
time remaining in plasma at milligram levels: at least 120 hours
